Assay results: ChEMBL document CHEMBL3351720, “Design, synthesis and evaluation of benzoisothiazolones as selective inhibitors of PHOSPHO1” (Bioorg Med Chem Lett, 2014)

Biological target: T1, Phosphomannomutase 2 (Homo sapiens, UniProt O15305)
T1 sequence (O15305 whole entry): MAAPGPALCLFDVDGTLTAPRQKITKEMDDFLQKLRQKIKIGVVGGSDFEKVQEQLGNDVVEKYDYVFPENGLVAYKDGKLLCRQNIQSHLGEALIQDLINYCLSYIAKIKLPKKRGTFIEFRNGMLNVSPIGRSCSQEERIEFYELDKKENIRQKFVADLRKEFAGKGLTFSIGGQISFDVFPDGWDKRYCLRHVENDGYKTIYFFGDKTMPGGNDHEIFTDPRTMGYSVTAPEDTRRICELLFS
Experiment: Inhibition of PMM2 (unknown origin)

O=c1c2ccccc2sn1-c1ccccc1 gave an IC50 greater than 20 µM.
